Data on two molecules can be found in ChEMBL document CHEMBL4823256, “Prodrugs of a 1'-CN-4-Aza-7,9-dideazaadenosine C-Nucleoside Leading to the Discovery of Remdesivir (GS-5734) as a Potent Inhibitor of Respiratory Syncytial Virus with Efficacy in the African Green Monkey Model of RSV” (J Med Chem, 2021).

The nature of the data set: in vitro. The note with it: human, HEp-2 cells, Ratio CC50/EC50.

The structures appear in SMILES notation.

Take `CCC(CC)COC(=O)[C@H](C)N[P@@](=O)(OC[C@H]1O[C@@](C#N)(c2ccc3c(N)ncnn23)[C@H](O)[C@@H]1O)Oc1ccccc1`: the selectivity ratio worked out at 929.

With `CCC(CC)COC(=O)[C@H](C)N[P@](=O)(OC[C@H]1O[C@@](C#N)(c2ccc3c(N)ncnn23)[C@H](O)[C@@H]1O)Oc1ccccc1` (stereo in doubt; 18j), the selectivity ratio was found to be 341.
